Source: US6979545B2, “Method for determining chemical reactivity” (Pharmacia & Upjohn Company, priority 2000, dated 2005)

Assay: GSH reactivity screen (mercury orange fluorescence, 96-well)
Type: physicochemical
Details: test compound with 200 μM GSH, 1 h at room temperature; no metabolic activation, no glutathione transferase

In the case of 4-chlorol-3-nitrotoluene, the “result in the GSH screen (in words)” value is reported as “non-reactive”.
